For two compounds, Potency results are on record in PubChem BioAssay AID720535 (National Center for Advancing Translational Sciences (NCATS), 2013).

The structures appear in SMILES notation. This is a selection; strong and weak results do not stand in their true shares. Records with an inconclusive call do not appear. Activity calls are given as the source filed them. The call rests on the fitted dose curve; in most records, active means well fitted inhibition curve with a large enough effect; inconclusive means small, poorly fitted or top-dose-only effect; inactive means flat fitted curve, though single readings scatter.
Potency means the concentration at half of the fitted maximal effect.

The nature of this experiment: qHTS for Inhibitors of TGF-b: Cytotox Counterscreen for Cherry Picks. Further: nearly all actives have a fitted effect of over 70% in size. To be noted: HepG2 CAGA-GFP viability, ATP luminescence, 18 h; cells stimulated with TGF-beta, 500 pg/mL. The text has this:
TGF-b is a main component in the TGF-b signaling pathway which plays diverse roles in cellular and development pathways. TGF-b is mediated by transcription factors called "Smads". Although the Smad-dependent pathway is the primary canonical TGF-b signaling mode, TGF-b1 can also activate alternative signaling pathways, including those involving MAPK (ERK, JNK and p38). This interaction may mediate or enhance Smad-dependent responses, or can exert Smad-independent effects. The complexity of this signaling cascade allows the TGF-b superfamily to perform unique, overlapping or redundant functions. […] We aim to identify Smad3-small molecule antagonists using a quantitative high throughput screening (qHTS) approach. […]
Suspensions of trypsinized HEPG2 CAGA-GFP cells were dispensed into white, tissue culture-treated, solid 1536-well plates at 5uL/well (1000 cells/well final concentration) in DMEM medium supplemented with 1% FBS. […] Two uL of CellTiter Glo (Promega), a luminescence-based viability reagent, was dispensed, followed by a 10 minute room temperature incubation. The plates were then measured on a PerkinElmer ViewLux plate reader for luminescence (clear filter) using a 5 second exposure. The %Activity was determined from the corrected luminescence values. […] Concentration-response curves were fitted to the signals arising from the resulting luminescence. […]
In the case of `O=c1c2cc([N+](=O)[O-])ccc2[nH]c2c([N+](=O)[O-])cc([N+](=O)[O-])cc12`, the Potency is active: 4110 nM. With `CC1=CC2OC3CC4OC(=O)/C=C/C=CC(C(C)O)OCC(O)C(C)CC(=O)OCC2(CC1O)C4(C)C31CO1` (configuration not stated) the figure was active: 65.1 nM.
